# Apparent affinities of Ab-14 variants for a coronavirus HR2 peptide

Data: MIT Lincoln Laboratory AlphaSeq set, Engelhart et al. 2022, doi:10.1038/s41597-022-01779-4, as distributed in FLAb.

Binding partner: SARS-CoV-2 spike HR2 peptide, sequence PDVDLGDISGINAS.

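The parent was found by panning a naive human phage display library on the peptide. The library (AAYL49) carries one to three amino acid substitutions per variant, with no insertions or deletions. The assay is AlphaSeq: two haploid yeast populations carry antibody and antigen on their surface. Pairs that bind mate more often; barcode pairs of the diploids are counted by sequencing. Read counts were normalised to the haploid input and turned into Kd by a linear fit to BCL2-family pairs of known affinity, for each replicate. Mating was done three times.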

Each scFv is VH, a (GGGGS)3 linker, VL, as in the parent Ab-14, and differs from it in the CDRs of the heavy chain only.
VH: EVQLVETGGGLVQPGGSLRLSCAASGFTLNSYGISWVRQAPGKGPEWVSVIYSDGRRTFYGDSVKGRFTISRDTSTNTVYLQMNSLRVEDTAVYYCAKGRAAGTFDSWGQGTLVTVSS
VL: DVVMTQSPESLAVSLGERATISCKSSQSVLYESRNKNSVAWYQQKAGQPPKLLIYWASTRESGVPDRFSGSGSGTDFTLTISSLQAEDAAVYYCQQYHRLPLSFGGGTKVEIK

Changes read parent residue, position, new residue, counted from the first residue of the VH shown. The read-out is the apparent dissociation constant on a log10 scale (nM): the lower, the stronger. A mean of the replicates is given; it leaves out those without a signal. An entry "nd" has no value in the source: the pair was not observed among the diploids in that replicate. This suggests poor binding but is not conclusive. Empty control strains, which show no peptide, gave a signal in 15% of pairings with library AAYL49; the median was 4.06 and 95% of these signals were weaker than 2.83. No background was subtracted. For each scFv, signals with the empty controls are counted beside the result, with their mean in brackets.

changes,"replicates, log10 nM",mean log10 Kd (nM),control signals
I34T+V50T,nd / 3.18 / 5.36,4.27,2/9 (2.23)
G26F+Y52I,4.07 / nd / nd,4.07,1/9 (4.31)
I34Q+R100C+A101R,nd / nd / nd,nd,2/9 (3.92)
T28E+I34A+F105V,nd / nd / nd,nd,3/9 (2.11)
T58M+F59P+V64R,nd / nd / nd,nd,0/9
G61M+K65S+F105P,nd / nd / nd,nd,0/9
F27R+Y32H+D62L,nd / 3.92 / 3.38,3.65,2/9 (3.36)
S31I+T58D+R100D,nd / nd / nd,nd,1/9 (4.24)
I34Q+I51N+S53G,nd / nd / nd,nd,2/9 (4.21)
R57Y+K65N+D106Y,nd / nd / nd,nd,1/9 (3.42)
T28A+V50C+D62E,3.43 / 3.61 / 3.17,3.40,1/9 (4.33)
I51M+D54K,nd / nd / nd,nd,1/9 (1.95)
K65D+G103S,2.36 / 1.98 / 2.48,2.27,1/9 (4.39)
S31R+D62K+G103R,nd / nd / nd,nd,3/9 (4.06)
G26V+S53R+K65H,nd / nd / nd,nd,0/9
T28F+F105C+S107C,3.58 / 2.61 / 3.16,3.12,1/9 (3.63)
F59K+D106S,2.56 / 2.88 / 3.03,2.83,0/9
I34C+V50A+F105V,nd / nd / nd,nd,1/9 (4.88)
F27E+Y52C+G55I,4.58 / 3.45 / 5.89,4.64,3/9 (4.05)
T28H+V50S+R57E,nd / nd / nd,nd,2/9 (4.68)
G26M+G33C+R100Y,nd / nd / nd,nd,0/9
Y32H+S53C+F59I,nd / nd / nd,nd,0/9
I34E+R56G+R100Q,nd / nd / nd,nd,0/9
R56T+G103P+S107P,0.97 / 1.14 / 1.29,1.13,0/9
I34K+G99S+G103A,nd / nd / nd,nd,0/9
S31L+R57F+R100Q,5.21 / 4.96 / nd,5.08,5/9 (4.73)
L29T+S63R,5.45 / 3.48 / nd,4.46,1/9 (3.45)
G33P+T58I+S63L,nd / nd / 3.67,3.67,3/9 (3.82)
G55H+T58R+T104Y,nd / nd / nd,nd,0/9
G33Y+I34A+V50A,nd / nd / 4.58,4.58,0/9
S31E+I51F+D54P,nd / nd / nd,nd,3/9 (3.75)
S53V+S63L+V64K,nd / nd / nd,nd,0/9
S35Q+D62M,nd / 4.25 / nd,4.25,1/9 (4.27)
K65E,0.34 / 0.68 / 0.52,0.51,1/9 (4.16)
S53I+A101E+S107K,nd / nd / 3.82,3.82,6/9 (4.88)

A selection of 5 entries from above:

changes,"replicates, log10 nM",mean log10 Kd (nM),control signals
S31L+R57F+R100Q,5.21 / 4.96 / nd,5.08,5/9 (4.73)
S53I+A101E+S107K,nd / nd / 3.82,3.82,6/9 (4.88)
T28F+F105C+S107C,3.58 / 2.61 / 3.16,3.12,1/9 (3.63)
I34E+R56G+R100Q,nd / nd / nd,nd,0/9
F27R+Y32H+D62L,nd / 3.92 / 3.38,3.65,2/9 (3.36)